The values below are quoted from earlier work in PMC6687308 (Journal of natural products, 2017).

As usually defined, the IC50 is the concentration that gives 50% inhibition.

The test system of this series is TRPM2. The settings on record: read-out: IC50 on TRPM2-transfected HEK cells; cited from earlier work.

`NCCOB(c1ccccc1)c1ccccc1` [2-APB, 2-aminoethyl diphenylborinate]: the 50% inhibitory concentration (IC50) was 1 µM.
